Amino acid sequences for entries named in this document (tags omitted). Residues count along the entry.
UniProt P03950, 25-147 limits assumed: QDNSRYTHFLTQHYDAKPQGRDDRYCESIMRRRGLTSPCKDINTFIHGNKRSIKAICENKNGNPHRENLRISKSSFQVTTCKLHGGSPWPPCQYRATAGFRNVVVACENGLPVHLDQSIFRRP

In US20070032418A1, “Small-molecule inhibitors of angiogenin and rnases and in vivo and in vitro methods of using same” (Ambion, Inc, priority 2003, published 2007):

Target: angiogenin (ANG) (Homo sapiens, UniProt P03950)
Assay: Inhibition of ANG ribonucleolytic activity, HPLC assay of oligonucleotide cleavage
Settings: inhibition of ANG-catalyzed cleavage of an RNA oligonucleotide; 20 mM Hepes, 100 mM NaCl, 37° C.; tested form: drawn as sulfonate anion, counter-ion no

- Ki: 5 µM
Compound: O=C(Nc1ccc(/N=N/c2ccc3cc(S(=O)(=O)O)cc(S(=O)(=O)O)c3c2)cc1)c1ccc(/N=N/c2c(O)ccc3cc(S(=O)(=O)O)cc(S(=O)(=O)O)c23)cc1
